Measurements from paper doi:10.1101/2022.05.31.494188.

Key:
Assay in all cases: SPR
Conditions in all cases: Fc fusion
[1] = biological target: mouse FcγRIV (mFcγRIV), recombinant (mouse)
[2] = biological target: human FcγRI (hFcγRI), recombinant (human) (UniProt P12314)
[3] = biological target: human FcγRIIIa (hFcγRIIIa), recombinant (human) (UniProt P08637)

Substance	Kd [1] [nM]	Kd [2] [nM]	Kd [3] [nM]
Avaren-Fc produced in glycoengineered ΔXylT/ΔFucT N. benthamiana (AvFc^ΔXF)	457	4.04	–
Avaren-Fc produced in wild-type N. benthamiana (AvFc^WT)	2530	7.78	383
